Experimental data: patent publication US9108930B2, “N1- and N2-carbamoyl-1,2,3-triazole serine hydrolase inhibitors and methods” (The Scripps Research Institute, priority 2011, dated 2015)

Legend:
[1] = test system: serine hydrolases (SHs) in BW5147-derived murine T-cell hybridoma cells; experiment: Competitive ABPP-SILAC in mouse T-cells (in situ), SH-wide profile; assay type: cell-based; conditions: 3 nM inhibitor, 4 h
Protocol: Briefly, mouse T-cells were cultured under ‘light’ (with ^12C6^14N2-lysine and ^12C6^14N4-arginine containing medium) and ‘heavy’ conditions (with ^13C6^15N2-lysine and ^13C6^15N4-arginine). The light and heavy cells were treated with inhibitor and DMSO, respectively, and then harvested, lysed, separated into soluble and membrane fractions, and treated with FP-biotin (5 μM, 90 min). Light and heavy fractions were then mixed, enriched with avidin, digested on-bead with trypsin, and analyzed by LC-MS/MS using an LTQ-Orbitrap instrument. Light and heavy signals were quantified from parent ion peaks (MS1) and the corresponding proteins identified from product ion profiles (MS2) using the SEQUEST search algorithm. The depicted bar graphs represent the average ratios of light/heavy tryptic peptides for each of the 46 SHs identified in mouse T-cells (FIG. 2d). While in situ treatment with carbamate AA38-3 inhibited three SHs (ABHD6, ABHD11, and FAAH), 15 SHs were inhibited by triazole urea AA26-9 (including the aforementioned three targets of AA38-3) (FIG. 2d). […] Taking into account the predicted molecular masses of AA26-9-inhibited and AA38-3-inhibited SHs, as well as their sensitivity to one or both inhibitors, allowed for confident assignment of many of the SH signals on ABPP gels (FIG. 2b).

[2] = test system: serine hydrolases detected in the Neuro2A proteome; experiment: ABPP-SILAC in Neuro2A cells, other serine hydrolases; conditions: about 4 hours; 25 nM KT172 and KT195, 50 nM KT109

Structure (SMILES) | effect on other SHs detected in T-cells [1] | activity against other serine hydrolases [2]
COCC1CCCCN1C(=O)n1ncc(C(O)(c2ccccc2)c2ccccc2)n1 (centres unmarked) [AA44-2] | not affecting any of the other 40+ SHs detected in T-cells | 
CC(C)CC(O)(CC(C)C)c1cnn(C(=O)N2CCCC2)n1 [AA74-1] | not affecting any of the other 40+ SHs detected in T-cells | 
O=C(N1CCCCC1Cc1ccccc1)n1cc(-c2ccc(-c3ccccc3)cc2)nn1 (centres unmarked) [KT109] |  | negligible activity against any other serine hydrolases detected in the Neuro2A proteome with the exception of ABHD6
COc1ccccc1-c1ccc(-c2cn(C(=O)N3CCCCC3Cc3ccccc3)nn2)cc1 (centres unmarked) [KT172] |  | negligible activity against any other serine hydrolases detected in the Neuro2A proteome with the exception of ABHD6
COc1ccc(-c2ccc(-c3cn(C(=O)N4CCCCC4c4ccccc4)nn3)cc2)cc1 (centres unmarked) [KT195] |  | no activity against other serine hydrolase detected in the Neuro2A proteome, including DAGLB
